Measurements: publication PMC3116189, “Novel Natural Inhibitors of CYP1A2 Identified by in Silico and in Vitro Screening” (International Journal of Molecular Sciences, 2011)

Amino acid sequences for entries named in this document (tags omitted).
UniProt P05177, whole entry: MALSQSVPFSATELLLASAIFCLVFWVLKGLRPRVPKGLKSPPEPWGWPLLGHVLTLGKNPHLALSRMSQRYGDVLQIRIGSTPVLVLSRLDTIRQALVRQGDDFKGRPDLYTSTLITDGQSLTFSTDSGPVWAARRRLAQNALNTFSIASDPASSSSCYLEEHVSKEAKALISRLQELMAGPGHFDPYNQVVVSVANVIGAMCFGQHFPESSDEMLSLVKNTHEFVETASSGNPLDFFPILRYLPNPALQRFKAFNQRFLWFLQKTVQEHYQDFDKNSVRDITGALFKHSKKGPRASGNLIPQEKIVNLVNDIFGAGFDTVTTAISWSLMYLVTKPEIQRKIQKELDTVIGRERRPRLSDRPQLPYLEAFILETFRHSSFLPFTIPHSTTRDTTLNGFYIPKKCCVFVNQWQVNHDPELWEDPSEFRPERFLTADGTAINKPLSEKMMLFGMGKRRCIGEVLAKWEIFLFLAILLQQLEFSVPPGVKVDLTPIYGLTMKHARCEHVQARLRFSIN

Target: CYP1A2 (Homo sapiens, UniProt P05177)
Assay type: biochemical
Settings: 1 μM active ingredient, Rh CYP1A2-mediated phenacetin O-deethylation, test dataset of 202 herb ingredients
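Further: recombinant CYP1A2 incubated for 1 h at 37 °C, with the reaction started by an NADPH-generating system.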

For Evodiamine, the “% of Control Indication Activity (Mean)” value was greater than 90%.

In the case of Ginkgolide C, the “% of Control Indication Activity (Mean)” value is reported as greater than 90%.

For Hydroxysafflor yellow A, the “% of Control Indication Activity (Mean)” value was greater than 90%.

With Icariside II the “% of Control Indication Activity (Mean)” value was greater than 90%.

In the case of Vitexin glucoside, the “% of Control Indication Activity (Mean)” value is reported as greater than 90%.
